# According to patent US10314870B2, “Tropism modified cancer terminator virus (Ad.5/3 CTV;AD.5/3-CTV-M7)” (priority 2012, dated 2019):
# Test system: primary human GBM cells (GBM6, GBM12)
# Assay: Cell death by trypan blue exclusion in primary human GBM cells
# Type: cell-based
# Details: GBM6, GBM12 infected with Ad.5-mda-7 moi 10; Na Valproate 0.3-1.0 mM, SBHA 0.3-5.0 μM; 48 h; dose-dependent
# Protocol: FIG. 18A-C. […] (A) GBM6 cells, (B) GBM12 cells and (C) primary human astrocytes were infected with empty vector or recombinant serotype 5 adenovirus to express MDA-7/IL-24; at a multiplicity of infection (moi) of 10. After infection (24 h) cells were treated with vehicle control or with pharmacologically achievable concentrations of HDACIs, Na Valproate (0, 0.3, 0.5, 1.0 mM) or the vorinostat analogue SBHA (0, 0.3, 1.0, 3.0, 5.0 µM). Cells were isolated 48 h later and viability determined by trypan blue exclusion (n=3, +/−SEM) (*p<0.05 greater than corresponding value in Ad.5-cmv infected cells).
# FIGS. 23A and B. SBHA enhances MDA-7/IL-24 toxicity through the extrinsic pathway. […] Cells were isolated 48 h later and viability determined by trypan blue exclusion (n=3, +/−SEM). […] Cells were isolated 24 h later and viability determined by trypan blue exclusion (n=3, +/−SEM) (*p<0.05 greater than corresponding Ad.5-cmv values). […]
# Detection of Cell Death by Trypan Blue Assays. […] Trypan blue stain, in which blue dye incorporating cells were scored as being dead, was performed by counting of cells using a light microscope and a hemacytometer. Five hundred cells from randomly chosen fields were counted and the number of dead cells was counted and expressed as a percentage of the total number of cells counted.
compound,measurement,value
CCCC(CCC)C(=O)[O-].[Na+] [sodium valproate],effect on lethality of MDA-7/IL-24,enhanced the lethality of MDA-7/IL-24
